MITF act: activators of MITF-driven TRPM1 promoter reporter, primary screen, cell-based, SK-MEL-5, luciferase, single point; SK-MEL-5 TRPM1-promoter luciferase, 24 h; % of positive control, neutral wells = 0; activation, % at 12.5 µM; actives 0.75% (n = 300,000); AID 588334, 2011;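 active means mean activation of at least 80% with every replicate also reaching 80%; inconclusive means mean reaches 80% but some replicate falls short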
UUG fidelity: alters start codon recognition fidelity in yeast. S. cerevisiae UUG-firefly luciferase reporter, luminescence/redox ratio. AID 602363. activity score, % at 18.7 µM. hit rate 0.13% among 350,000;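 active = replicate mean at a twofold rise or more, about +100% in these data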;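 note: firefly luciferase made from a UUG start codon reports start codon fidelity; reporter light over untreated wells divided by growth signal over untreated wells; some hits fall short of that in this replicate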
miR122 inh: miR-122 Renilla sensor signal increase in Huh7, primary screen, miR-122 inhibitor project, cell-based, single point, plate reader; Huh7 miR-122 Renilla luciferase sensor, 48 h; neutral wells = 0, positive control = 100; activation (reporter increase), % at 12.5 µM; actives 0.3% (n = 340,000);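 active means mean replicate activation score at least 90 and every replicate individually at or above 90; inconclusive means only one of the two criteria met; inactive means neither criterion met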;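 further: higher luciferase means less miR-122 activity so hits act as miR-122 inhibitors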
PGC1a acetyl inh: inhibitors of PGC1a acetylation signal, primary screen, cell-based, U2OS, AlphaScreen, inhibitor mode. AlphaScreen anti-acetyl-lysine; with virally co-expressed GCN5 acetyltransferase. inhibition, % at 15.6 µM. actives 0.17% (n = 350,000);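 active means every replicate shows inhibition of at least 40%; inconclusive means mean inhibition at least 40% but some replicate below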
Wnt bcat act: Wnt/beta-catenin pathway activators, primary screen, cell-based, plate reader, single point; Wnt/beta-catenin reporter cell assay, activator; activation, % at 9.35 µM; actives 1.2% (n = 300,000); in the data active means activation above about 30%, passing the limit was not always enough; inconclusive means no clear call, values can overlap the other calls
MITF TRPM1 inh: inhibitors of MITF-dependent TRPM1 promoter reporter, primary screen, cell-based, SK-MEL-5, single point, luciferase. SK-MEL-5 TRPM1 promoter luciferase, 24 h. inhibition, % at 12.5 µM. actives 0.83% (n = 330,000);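 active means mean inhibition across replicates of 60% or more, whatever share of single replicates reaches that level; inconclusive means some that reach 60%, reason not given; inactive means mean inhibition across replicates below 60%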
Large screens that a line does not name were inactive. Only some compounds are listed: those with a hit (about 2.1% of all), similar ones and a draw of the others.

CO[C@H]1CN(C)C(=O)c2cc(NC(=O)C3CC3)ccc2OC[C@@H](C)N(C(=O)c2ccccc2)C[C@H]1C	none (no result: MITF act, miR122 inh, Wnt bcat act, MITF TRPM1 inh)
Cc1cc(C(=O)Nc2cccc3c2O[C@@H](CN(C)Cc2ccc4c(c2)OCO4)[C@@H](C)CN([C@H](C)CO)C3=O)n(C)n1	none (no result: MITF act, Wnt bcat act, MITF TRPM1 inh)
C[C@@H]1CN([C@H](C)CO)S(=O)(=O)c2ccc(-c3cccc(F)c3)cc2O[C@@H]1CN(C)CC1CC1	none (no result: MITF act, Wnt bcat act, MITF TRPM1 inh)
NC(=S)N/N=C/c1ccc(-c2ccccc2)o1	none (no result: UUG fidelity, miR122 inh)
Cc1ccc(-c2ccc(/C=N/NC(N)=S)o2)cc1	Wnt bcat act 58 (no result: MITF act)
COc1ccc(/C=N/Nc2nncn2N)cc1Br	PGC1a acetyl inh 69 (no result: MITF act)
O=[N+]([O-])c1cc([N+](=O)[O-])c2c(=Nc3ccccc3)n(-c3ccccc3)n(O)c2c1	MITF TRPM1 inh 61 (no result: UUG fidelity, miR122 inh)
CCOC(=O)c1c(C)[nH]c(C(=O)COC(=O)C2(C)CC2(Cl)Cl)c1C (stereo not given)	Wnt bcat act 50
CCOC(=O)c1c(C)[nH]c(C(=O)OCC(=O)NCc2ccccc2)c1C	none
CCOC(=O)c1[nH]c(C)c(C(=O)OC)c1C	none (no result: UUG fidelity, miR122 inh, PGC1a acetyl inh)
COC(=O)c1c(C)[nH]c(C(=O)OCC(=O)c2ccc(C)s2)c1C	MITF act 89
CCOC(=O)c1c(C)[nH]c(C(=O)OCC(=O)c2ccccc2)c1C	MITF act 122, Wnt bcat act 49 (no result: UUG fidelity, miR122 inh, PGC1a acetyl inh)
CCOC(=O)c1c(C)[nH]c(C(=O)COC(=O)C2CC2)c1C	MITF act 86
C[C@@H]1CN([C@@H](C)CO)C(=O)c2cc(-c3cccnc3)cnc2O[C@H]1CN(C)C(=O)C1CCC1	none (no result: MITF act, Wnt bcat act, MITF TRPM1 inh)
CS(=O)(=O)c1ccccc1-c1csc(N2CCC(C(N)=O)CC2)n1	none (no result: MITF act, UUG fidelity, miR122 inh, PGC1a acetyl inh, MITF TRPM1 inh)
NC(=O)C1CCN(c2nc(-c3ccccc3Br)cs2)CC1	Wnt bcat act 38 (no result: MITF act, UUG fidelity, miR122 inh, PGC1a acetyl inh, MITF TRPM1 inh)
NC(=O)C1CCN(c2nc(-c3ccccc3C(F)(F)F)cs2)CC1	none
NC(=O)C1CCN(c2nc(-c3ccccc3F)cs2)CC1	MITF act 88, Wnt bcat act inconclusive
CN(C)c1ccccc1-c1csc(N2CCC(C(N)=O)CC2)n1	MITF act 97 (no result: PGC1a acetyl inh)
O=C(C[C@@H]1CC[C@H](NS(=O)(=O)c2ccccc2)[C@@H](CO)O1)NCc1ccccc1F	none (no result: MITF act, miR122 inh, Wnt bcat act, MITF TRPM1 inh)
COc1ccccc1NC(=S)NC1CCCCC1	none
COc1ccccc1NC(=S)NCC1CCCCC1	miR122 inh 182
Cn1nnnc1Sc1ncnc2scc(-c3ccccc3Br)c12	none
Cn1nnnc1Sc1ncnc2scc(-c3ccc[nH]3)c12	MITF TRPM1 inh 84
Cn1nnnc1Sc1ncnc2scc(-c3ccccc3)c12	none
Cn1nnnc1Sc1ncnc2scc(-c3ccc(F)cc3)c12	MITF TRPM1 inh 83 (no result: Wnt bcat act)
COc1ccccc1-c1csc2ncnc(Sc3nnnn3C)c12	none
Cn1nnnc1Sc1ncnc2scc(-c3ccc(Br)cc3)c12	MITF TRPM1 inh 94
C[C@H](CO)N1C[C@H](C)[C@H](CN(C)Cc2ccc3c(c2)OCO3)Oc2ccc(NC(=O)NC3CCCCC3)cc2C1=O	none (no result: MITF act, Wnt bcat act, MITF TRPM1 inh)
CCCOc1ccc(-c2nc(N3CCN(C)CC3)c3ccccc3n2)cc1	MITF act 125, Wnt bcat act 46
CCCOc1ccc(-c2nc(N3CCN(CC)CC3)c3ccccc3n2)cc1	none
CNC[C@@H]1OCCCC[C@H](C)Oc2ccc(NC(=O)CCC(F)(F)F)cc2C(=O)N([C@H](C)CO)C[C@@H]1C	none (no result: MITF act, UUG fidelity, Wnt bcat act, MITF TRPM1 inh)
Cc1nn(-c2ccccn2)c2c1-c1nc(N3CCOCC3)ncc1CC2	none (no result: UUG fidelity, Wnt bcat act)
Cc1nn(-c2ccccn2)c2c1-c1nc(N)ncc1CC2	MITF act 110
COc1ccccc1-c1noc(-c2ccco2)n1	MITF act 90
O=C(Nc1ccc(Br)cc1)Nc1ccccc1Cl	MITF act 82, Wnt bcat act 31 (no result: UUG fidelity, miR122 inh, PGC1a acetyl inh)
Cc1noc(C)c1NC(=O)Nc1ccc2c(c1)C(=O)N([C@H](C)CO)C[C@H](C)[C@H](CN(C)Cc1ccncc1)OCCCC[C@H](C)O2	none (no result: MITF act, Wnt bcat act, MITF TRPM1 inh)
C(=NN1CCCCCC1)c1ccc2c(c1)OCO2	Wnt bcat act 33 (no result: UUG fidelity)
COc1ccccc1N1CCN(/N=C/c2ccc([N+](=O)[O-])cc2)CC1	none (no result: MITF act)
O=C(/C=C/C=C/c1ccc2c(c1)OCO2)N1CCCCC1	MITF act 98
O=[N+]([O-])c1ccc(C=NN2CCCCCC2)cc1	Wnt bcat act 60 (no result: UUG fidelity)
CCC(=O)N1[C@@H](CO)[C@@H]2c3ccccc3N(C(=O)c3ccc4c(c3)OCO4)C[C@@H]21	none (no result: MITF act, Wnt bcat act, MITF TRPM1 inh)
CCN(CC)CCNC(=O)c1cc(-c2cccnc2)nc2ccc(S(=O)(=O)N3CCC(C)CC3)cc12	MITF TRPM1 inh 88 (no result: miR122 inh, PGC1a acetyl inh)
CCCCN(C)CCNC(=O)c1cc(-c2cccnc2)nc2ccc(S(=O)(=O)N3CCC(C)CC3)cc12	none
Cc1cc(C)n(-c2nnc3c4ccccc4n(C)c3n2)n1	Wnt bcat act 48 (no result: MITF act)
Cc1ccc(Nc2c(-c3ccc(N4CCOCC4)cc3)nc3cnccn23)cc1	none
Cc1ccccc1Nc1c(-c2ccc(N3CCOCC3)cc2)nc2cnccn12	Wnt bcat act 33
CC(C)(C)N1C(=O)c2ccc(C(=O)Nc3ccc(O)cc3)cc2C1=O	Wnt bcat act 48 (no result: MITF act, miR122 inh, PGC1a acetyl inh)
Cc1ccc(Cn2c(/C=C/c3ccco3)nc3ccccc32)cc1	none (no result: UUG fidelity, miR122 inh, PGC1a acetyl inh, Wnt bcat act)
Clc1ccc(Cn2c(/C=C/c3ccco3)nc3ccccc32)cc1	Wnt bcat act 34 (no result: UUG fidelity, miR122 inh, PGC1a acetyl inh)
O=C(Nc1cccc2nsnc12)c1cccs1	none
O=C(Nc1ccccc1)Nc1cccc2nsnc12	Wnt bcat act 40 (no result: UUG fidelity, miR122 inh, PGC1a acetyl inh)
Cc1cccc(NC(=O)c2cc(-c3cc(Cl)ccc3O)n[nH]2)c1	MITF act 108 (no result: Wnt bcat act)
Cc1ccc(C)c(NC(=O)c2cc(-c3cc(C)ccc3O)n[nH]2)c1	MITF act 117 (no result: miR122 inh)
O=C(N1CCN(c2ccccn2)CC1)C(Cl)(Cl)Cl	none (no result: UUG fidelity, miR122 inh, PGC1a acetyl inh, Wnt bcat act)
O=C1C=C(N2CCN(c3ccccn3)CC2)C(=O)c2c(O)ccc(O)c21	MITF TRPM1 inh 92 (no result: UUG fidelity, miR122 inh, PGC1a acetyl inh)
CC(C)NC(=O)Nc1ccc2c(c1)C(=O)N([C@H](C)CO)C[C@H](C)[C@@H](CN(C)S(=O)(=O)c1ccc(Cl)cc1)OCCCC[C@@H](C)O2	none (no result: MITF act, Wnt bcat act, MITF TRPM1 inh)
COc1ccc(Cl)cc1NS(=O)(=O)c1cc(Cl)ccc1OC	miR122 inh 255 (no result: MITF act, Wnt bcat act)
COc1ccc(Cl)cc1S(=O)(=O)Nc1ccncc1	none
COc1ccc(Cl)cc1S(=O)(=O)NCc1cccnc1	miR122 inh 120 (no result: Wnt bcat act)
COc1cc(NS(=O)(=O)c2ccc(C)c(C)c2)c(OC)cc1Cl	miR122 inh 226 (no result: MITF act)
COc1ccc(S(=O)(=O)Nc2ccccc2OC)cc1C	none (no result: Wnt bcat act)
CCCNC(=O)N1CC(=O)N2[C@H](C1)[C@@H](c1ccc(-c3cccc(C)c3)cc1)[C@@H]2CO	none (no result: MITF act, UUG fidelity, miR122 inh, Wnt bcat act, MITF TRPM1 inh)
COc1ccc(NS(=O)(=O)c2cc(OC)ccc2OC)cc1	miR122 inh inconclusive

High-throughput results deposited in PubChem BioAssay by Broad Institute.
